Data: publication PMC8151276, “An Integrated Approach toward NanoBRET Tracers for Analysis of GPCR Ligand Engagement” (Molecules, 2021)
“And” between values parts separate entries of the source, which are not always exact repeats. Identical values can stand only once.

Amino acid sequences for entries named in this document (tags omitted). A change or cut given only in a name is not applied to a line headed by its entry.
UniProt P33032: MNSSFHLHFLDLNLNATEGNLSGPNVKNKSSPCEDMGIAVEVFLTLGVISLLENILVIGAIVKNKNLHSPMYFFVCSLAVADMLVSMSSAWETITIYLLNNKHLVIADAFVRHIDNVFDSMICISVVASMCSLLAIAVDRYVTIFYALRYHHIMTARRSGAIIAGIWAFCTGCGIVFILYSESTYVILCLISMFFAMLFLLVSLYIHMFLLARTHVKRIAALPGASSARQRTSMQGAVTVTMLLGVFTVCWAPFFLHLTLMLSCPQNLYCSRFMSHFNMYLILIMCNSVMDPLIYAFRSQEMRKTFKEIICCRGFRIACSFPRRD
UniProt Q9GZQ6: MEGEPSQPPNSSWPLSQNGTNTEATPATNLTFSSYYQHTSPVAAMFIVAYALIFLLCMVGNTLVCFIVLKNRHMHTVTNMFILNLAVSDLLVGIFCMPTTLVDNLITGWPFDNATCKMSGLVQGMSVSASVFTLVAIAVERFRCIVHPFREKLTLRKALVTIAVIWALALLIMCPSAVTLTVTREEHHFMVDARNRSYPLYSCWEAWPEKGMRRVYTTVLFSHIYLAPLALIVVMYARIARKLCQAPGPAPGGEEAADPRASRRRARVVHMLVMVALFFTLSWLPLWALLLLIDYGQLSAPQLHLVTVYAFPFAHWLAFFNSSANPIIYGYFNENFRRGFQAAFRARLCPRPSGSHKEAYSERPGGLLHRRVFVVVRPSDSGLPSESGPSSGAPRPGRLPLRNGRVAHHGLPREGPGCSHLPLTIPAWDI
UniProt P34972, whole entry: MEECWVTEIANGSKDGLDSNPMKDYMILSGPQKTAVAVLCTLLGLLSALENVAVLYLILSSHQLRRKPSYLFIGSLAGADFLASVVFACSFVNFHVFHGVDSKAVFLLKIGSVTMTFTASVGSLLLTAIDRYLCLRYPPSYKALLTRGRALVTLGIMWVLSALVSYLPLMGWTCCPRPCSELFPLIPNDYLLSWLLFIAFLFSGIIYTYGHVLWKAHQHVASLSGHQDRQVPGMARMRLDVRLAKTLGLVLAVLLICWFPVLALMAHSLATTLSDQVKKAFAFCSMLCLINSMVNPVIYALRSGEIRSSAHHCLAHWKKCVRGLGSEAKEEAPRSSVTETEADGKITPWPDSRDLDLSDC
UniProt P08173, whole entry: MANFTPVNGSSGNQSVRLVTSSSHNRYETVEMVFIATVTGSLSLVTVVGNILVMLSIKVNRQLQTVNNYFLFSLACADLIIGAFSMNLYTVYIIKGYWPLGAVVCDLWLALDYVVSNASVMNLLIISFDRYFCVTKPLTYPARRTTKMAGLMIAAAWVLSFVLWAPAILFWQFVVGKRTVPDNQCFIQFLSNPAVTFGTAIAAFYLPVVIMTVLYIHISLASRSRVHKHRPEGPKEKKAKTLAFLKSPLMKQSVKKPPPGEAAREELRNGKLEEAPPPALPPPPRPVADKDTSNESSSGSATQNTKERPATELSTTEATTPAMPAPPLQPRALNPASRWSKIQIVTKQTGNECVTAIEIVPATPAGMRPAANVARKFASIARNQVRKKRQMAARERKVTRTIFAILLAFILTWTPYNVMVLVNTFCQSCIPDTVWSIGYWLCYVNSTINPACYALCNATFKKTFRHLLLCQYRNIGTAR
UniProt P08912, whole entry: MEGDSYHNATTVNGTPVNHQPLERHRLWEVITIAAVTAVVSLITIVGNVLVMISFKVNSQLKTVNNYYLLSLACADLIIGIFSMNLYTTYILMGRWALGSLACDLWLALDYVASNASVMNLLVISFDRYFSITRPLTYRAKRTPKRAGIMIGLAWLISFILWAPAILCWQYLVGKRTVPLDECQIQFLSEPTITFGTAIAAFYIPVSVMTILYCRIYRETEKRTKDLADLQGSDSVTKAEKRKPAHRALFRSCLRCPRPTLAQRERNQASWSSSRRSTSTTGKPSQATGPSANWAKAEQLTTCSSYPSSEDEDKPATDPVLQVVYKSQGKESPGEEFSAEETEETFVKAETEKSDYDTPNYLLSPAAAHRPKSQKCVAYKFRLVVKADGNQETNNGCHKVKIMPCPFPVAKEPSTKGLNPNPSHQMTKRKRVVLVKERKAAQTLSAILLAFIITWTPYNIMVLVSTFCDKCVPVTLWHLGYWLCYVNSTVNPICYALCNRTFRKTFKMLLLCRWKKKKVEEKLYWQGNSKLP
UniProt P20309, whole entry: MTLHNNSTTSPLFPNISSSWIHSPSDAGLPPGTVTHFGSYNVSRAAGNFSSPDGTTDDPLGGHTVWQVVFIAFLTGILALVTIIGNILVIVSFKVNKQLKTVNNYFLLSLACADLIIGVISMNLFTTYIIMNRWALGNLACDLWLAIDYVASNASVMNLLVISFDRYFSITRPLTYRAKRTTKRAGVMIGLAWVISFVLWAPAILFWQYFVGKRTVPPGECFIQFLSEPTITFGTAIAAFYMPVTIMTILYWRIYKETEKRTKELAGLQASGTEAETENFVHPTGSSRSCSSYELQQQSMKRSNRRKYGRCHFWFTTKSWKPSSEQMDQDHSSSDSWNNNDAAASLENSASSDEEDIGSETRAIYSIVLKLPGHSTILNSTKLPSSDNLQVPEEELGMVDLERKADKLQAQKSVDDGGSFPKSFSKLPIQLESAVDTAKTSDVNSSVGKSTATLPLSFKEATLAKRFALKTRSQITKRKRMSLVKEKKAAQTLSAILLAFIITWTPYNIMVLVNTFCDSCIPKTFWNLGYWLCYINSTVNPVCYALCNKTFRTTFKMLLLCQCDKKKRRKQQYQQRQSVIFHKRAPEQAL
UniProt P35367, whole entry: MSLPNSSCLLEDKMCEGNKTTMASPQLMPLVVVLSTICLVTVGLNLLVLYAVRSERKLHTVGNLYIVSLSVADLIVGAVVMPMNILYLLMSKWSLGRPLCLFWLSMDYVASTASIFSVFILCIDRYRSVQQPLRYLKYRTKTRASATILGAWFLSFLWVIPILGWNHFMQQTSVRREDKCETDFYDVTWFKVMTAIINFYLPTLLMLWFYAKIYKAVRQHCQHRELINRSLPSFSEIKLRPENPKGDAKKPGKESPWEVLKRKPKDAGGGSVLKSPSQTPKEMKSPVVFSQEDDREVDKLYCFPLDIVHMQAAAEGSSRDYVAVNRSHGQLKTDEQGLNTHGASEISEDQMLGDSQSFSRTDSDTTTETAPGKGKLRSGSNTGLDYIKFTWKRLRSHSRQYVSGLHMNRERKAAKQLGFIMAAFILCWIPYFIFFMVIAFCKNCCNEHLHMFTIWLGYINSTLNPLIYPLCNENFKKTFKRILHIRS
UniProt P18089, whole entry: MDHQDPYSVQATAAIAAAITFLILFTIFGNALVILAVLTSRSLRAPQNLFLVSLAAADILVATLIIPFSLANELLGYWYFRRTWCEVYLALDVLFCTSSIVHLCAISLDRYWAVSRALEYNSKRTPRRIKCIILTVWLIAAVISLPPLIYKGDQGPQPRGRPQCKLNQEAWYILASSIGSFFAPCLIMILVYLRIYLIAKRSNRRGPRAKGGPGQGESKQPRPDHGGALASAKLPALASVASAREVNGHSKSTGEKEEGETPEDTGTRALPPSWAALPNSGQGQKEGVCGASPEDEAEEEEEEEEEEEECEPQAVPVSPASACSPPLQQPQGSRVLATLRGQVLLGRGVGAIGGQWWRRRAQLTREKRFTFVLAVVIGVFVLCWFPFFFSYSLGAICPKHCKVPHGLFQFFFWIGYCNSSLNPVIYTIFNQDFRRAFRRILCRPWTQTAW

Assays:
MC5R = molecular target: T1, MC5R (Homo sapiens, UniProt P33032); experiment: NanoBRET screen HiBiT-MC5R in HEK293; format: binding; conditions: tracer 0.1μM
T1 construct: purchased Promega (in-house HiBiT-GPCR construct library, NanoBRET)
Description: (§1) Each tracer candidate was screened across the entire library of HiBiT-GPCR constructs using NanoBRET as the detection modality. As depicted in Figure 4A, the specificity of interactions was evaluated through decrease in BRET due to competitive displacement of a bound tracer by excess parental compound. Each tracer was analyzed for binding to each HiBiT-GPCR fusion in the absence and in the presence of competing parental compound. Briefly, HEK293 cells were transfected with HiBiT-GPCR constructs diluted into promoterless DNA to reduce expression and maximize translocation to the cell surface. Each tracer candidate was then screened at concentrations of 1 μM and 0.1 μM across cells expressing these fusions. Cells were treated for 1.5 h with tracer either alone or in the presence of 20 μM competing parental compound (i.e., control). BRET was measured upon addition of purified LgBiT and subsequent complementation with HiBiT genetically fused to a GPCR. The specificity of interactions was assessed through a decrease in BRET signal due to competitive displacement of the bound tracer. To further gauge the robustness of these interactions, the fold response over the control (i.e., BRETtracer/BRETcontrol) was calculated. We chose a 1.5-fold response, which translates to ≥7-fold signal over noise as the minimal threshold required to score an interaction as positive. […]. Below we highlight the screening results obtained for our exemplary fluorescent tracers based on Clozapine, Amitriptyline and AZD1283.
(§2) HiBiT-GPCR DNA constructs were diluted in 10 mM Tris pH 8 to a final concentration of 0.01 μg/μL, arrayed in 96-well plates and stored at −20 °C. For transfection, HEK293 cells were suspended in Opti-MEM (without phenol red) supplemented with 2% fetal bovine serum (Seradigm) and 100 units/mL penicillin–streptomycin (Gibco) at a final concentration of 220,000 cells/mL and dispensed into white 96-well plates at 90 μL/well. Subsequent transfections and screens were carried using an Agilent Bravo Automated Liquid Handling Platform. First, the 96-well HiBiT DNA arrays were diluted 25-fold in Opti-MEM (without serum or phenol red) to a final concentration of 0.0004 μg/μL and 20 μL of the diluted DNAs were transferred into new 96-well plates. Next, promoterless carrier DNA (1 μg/μL) was diluted 25-fold (0.04 μg/μL) and then dispensed into the diluted arrays at 20 μL/well. Following brief mixing, Viafect transfection reagent (Promega) diluted 16-fold into Opti-MEM was dispensed into the plates at 40 μL/well. After mixing by pipetting, plates were incubated for 10 min on the pipetting station deck. The DNA-transfection reagent complexes were then added to plates containing cells. To facilitate the screen, 10 μL of DNA-transfection reagent complexes were added in duplicates to the top 4 and bottom 4 rows, resulting in two identical 48-well arrays per plate. Plates with transfected cells were incubated for 18–20 h at 37 °C/5% CO2. A screen of each tracer across the entire library using two different concentrations requires duplicate plates of transfected cells. Depending on the number of tracers being screened, transfections can be scaled up using the same ratios. The next day, for each tracer, four 20× screening solutions in tracer dilution buffer (Promega) were prepared: two duplicates at final concentration of 20 μM and two duplicates at a final concentration of 2 μM. A competing unmodified compound was added to one of each duplicate at a final concentration of 400 μM. […]

NPFFR1 = molecular target: T2, NPFFR1 (Homo sapiens, UniProt Q9GZQ6); experiment: NanoBRET screen HiBiT-NPFFR1 in HEK293; format: binding; conditions: NPFFR1; tracer 1μM
T2 construct: purchased Promega (in-house HiBiT-GPCR construct library, NanoBRET)
Description: as §1, §2

NPSR1 = molecular target: T3, NPSR1 (Homo sapiens, UniProt Q6W5P4); experiment: NanoBRET screen HiBiT-NPSR1 in HEK293; format: binding; conditions: tracer 0.1μM
T3 construct: purchased Promega (in-house HiBiT-GPCR construct library, NanoBRET)
T3 sequence (Q6W5P4 1-371): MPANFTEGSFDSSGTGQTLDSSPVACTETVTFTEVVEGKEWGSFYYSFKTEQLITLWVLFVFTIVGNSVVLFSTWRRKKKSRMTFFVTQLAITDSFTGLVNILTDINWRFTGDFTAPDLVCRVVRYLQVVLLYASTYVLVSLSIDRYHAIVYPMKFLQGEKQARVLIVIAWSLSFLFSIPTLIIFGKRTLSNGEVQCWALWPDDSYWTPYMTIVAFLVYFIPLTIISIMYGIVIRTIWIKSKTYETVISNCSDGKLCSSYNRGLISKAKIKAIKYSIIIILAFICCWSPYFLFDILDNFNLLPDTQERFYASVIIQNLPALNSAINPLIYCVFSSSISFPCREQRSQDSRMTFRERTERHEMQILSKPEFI
Description: as §1, with “Below we highlight the screening results obtained for our exemplary fluorescent tracers based on Clozapine, Amitriptyline and AZD1283.” left out

FZD10 = molecular target: T4, FZD10 (Homo sapiens, UniProt Q9ULW2); experiment: NanoBRET screen HiBiT-FZD10 in HEK293; format: binding; conditions: tracer 0.1μM
T4 construct: purchased Promega (in-house HiBiT-GPCR construct library, NanoBRET)
T4 sequence (Q9ULW2 21-581): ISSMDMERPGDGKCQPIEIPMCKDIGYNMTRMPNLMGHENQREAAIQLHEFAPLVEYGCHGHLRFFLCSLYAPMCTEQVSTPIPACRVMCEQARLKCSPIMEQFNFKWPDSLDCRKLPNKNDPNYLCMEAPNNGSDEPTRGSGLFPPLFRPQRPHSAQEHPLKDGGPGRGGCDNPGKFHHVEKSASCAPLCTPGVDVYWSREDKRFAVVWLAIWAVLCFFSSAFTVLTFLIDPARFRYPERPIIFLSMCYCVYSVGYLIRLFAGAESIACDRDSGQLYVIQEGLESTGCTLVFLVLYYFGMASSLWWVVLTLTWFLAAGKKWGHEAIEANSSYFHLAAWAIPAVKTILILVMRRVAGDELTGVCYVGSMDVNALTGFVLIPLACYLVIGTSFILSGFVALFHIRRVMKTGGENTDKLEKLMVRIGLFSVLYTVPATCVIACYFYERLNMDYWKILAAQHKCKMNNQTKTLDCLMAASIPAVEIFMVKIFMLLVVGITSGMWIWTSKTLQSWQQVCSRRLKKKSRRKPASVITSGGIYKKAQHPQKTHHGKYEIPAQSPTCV
Description: as §1, with “Below we highlight the screening results obtained for our exemplary fluorescent tracers based on Clozapine, Amitriptyline and AZD1283.” left out

CCR10 = molecular target: T5, CCR10 (Homo sapiens, UniProt P46092); experiment: NanoBRET screen HiBiT-CCR10 in HEK293; format: binding; conditions: CCR10, tracer 0.1μM
T5 construct: purchased Promega (in-house HiBiT-GPCR construct library, NanoBRET)
T5 sequence (P46092 1-362): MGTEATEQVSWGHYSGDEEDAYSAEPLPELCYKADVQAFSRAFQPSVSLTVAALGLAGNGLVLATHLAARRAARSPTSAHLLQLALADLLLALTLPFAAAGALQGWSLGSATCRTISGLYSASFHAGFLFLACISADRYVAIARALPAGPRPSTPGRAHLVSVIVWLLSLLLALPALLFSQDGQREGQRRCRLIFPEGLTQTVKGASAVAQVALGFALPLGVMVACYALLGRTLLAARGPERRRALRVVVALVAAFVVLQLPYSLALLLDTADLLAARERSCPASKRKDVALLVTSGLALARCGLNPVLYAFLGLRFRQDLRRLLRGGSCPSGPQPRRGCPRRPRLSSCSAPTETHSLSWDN
Description: as §1, with “Below we highlight the screening results obtained for our exemplary fluorescent tracers based on Clozapine, Amitriptyline and AZD1283.” left out

CNR2 = molecular target: T6, CNR2 (Homo sapiens, UniProt P34972); experiment: NanoBRET screen HiBiT-CNR2 in HEK293; format: binding; conditions: tracer 0.1μM
T6 construct: purchased Promega (in-house HiBiT-GPCR construct library, NanoBRET)
Description: as §1, with “Below we highlight the screening results obtained for our exemplary fluorescent tracers based on Clozapine, Amitriptyline and AZD1283.” left out

CHRM4 = molecular target: T7, CHRM4 (Homo sapiens, UniProt P08173); experiment: NanoBRET screen HiBiT-CHRM4 in HEK293; format: binding; conditions: tracer at 0.1μM
T7 construct: purchased Promega (in-house HiBiT-GPCR construct library, NanoBRET)
Description: as §1, with “Below we highlight the screening results obtained for our exemplary fluorescent tracers based on Clozapine, Amitriptyline and AZD1283.” left out

CHRM5 = molecular target: T8, CHRM5 (Homo sapiens, UniProt P08912); experiment: NanoBRET screen HiBiT-CHRM5 in HEK293; format: binding; conditions: tracer at 0.1μM
T8 construct: purchased Promega (in-house HiBiT-GPCR construct library, NanoBRET)
Description: as §1, with “Below we highlight the screening results obtained for our exemplary fluorescent tracers based on Clozapine, Amitriptyline and AZD1283.” left out

CHRM3 = molecular target: T9, CHRM3 (Homo sapiens, UniProt P20309); experiment: NanoBRET screen HiBiT-CHRM3 in HEK293; format: binding
T9 construct: purchased Promega (in-house HiBiT-GPCR construct library, NanoBRET)

HRH1 = molecular target: T10, HRH1 (Homo sapiens, UniProt P35367); experiment: NanoBRET screen HiBiT-HRH1 in HEK293; format: binding
T10 construct: purchased Promega (in-house HiBiT-GPCR construct library, NanoBRET)

ADRA2B = molecular target: T11, ADRA2B (Homo sapiens, UniProt P18089); experiment: NanoBRET screen HiBiT-ADRA2B in HEK293; format: binding
T11 construct: purchased Promega (in-house HiBiT-GPCR construct library, NanoBRET)

[1] = tested on: alpha-Adrenergic receptors; experiment: Competitive displacement of Clozapine-a-2-NB590 by unmodified scaffold (NanoBRET); format: binding, human; conditions: ADRA2C; other tracer 1μM, displaced by unmodified XAC
Description: Finally, we opted to compare the machine learning predictions for the 17 scaffolds to the empirical NanoBRET evaluations across 36 GPCR families investigated by both strategies (Figure 7). […] At the same time, empirical NanoBRET results for each scaffold were consolidated to include results for all relevant fluorescent tracer candidates screened at either 1 μM or 0.1 μM tracer concentrations. […] These additional verifications were incorporated to the comparative analysis and are also included in the compiled screening results (Supplementary Materials Excel spreadsheet).

SMILES: CC(C)N(CC[C@H](c1ccccc1)c1cc(CCNC(=O)CCOCCOCCOCCOCCNC(=O)CCc2ccc3n2[B-](F)(F)[N+]2=C(c4ccc[nH]4)C=CC2=C3)ccc1O)C(C)C [Tolterodine-2-NB590]
- NanoBRET Fold Response (MC5R): 1.03
- NanoBRET Fold Response (NPFFR1): 1.03
- NanoBRET Fold Response (NPSR1): 1.03
- NanoBRET Fold Response (FZD10): 1.03

SMILES: Cc1nc2n(c(=O)c1CCN1CCC(c3noc4cc(F)ccc34)CC1)CCCC2OC(=O)NCCOCCOCCOCCOCCNC(=O)CCc1ccc2n1[B-](F)(F)[N+]1=C(c3ccc[nH]3)C=CC1=C2 (stereo not shown) [Risperidone-2-NB590]
- NanoBRET Fold Response (CCR10): 1.03

SMILES: CC(C)N(CC[C@H](c1ccccc1)c1cc(CCNC(=O)c2ccc(CNC(=O)CCc3ccc4n3[B-](F)(F)[N+]3=C(c5ccc[nH]5)C=CC3=C4)cc2)ccc1O)C(C)C [Tolterodine-BZ-NB590]
- NanoBRET Fold Response (CNR2): 1.03

SMILES: CN(C)CCC=C1c2ccccc2CCc2ccc(C(=O)NCCNC(=O)CCOCCOCCOCCOCCNC(=O)CCc3ccc4n3[B-](F)(F)[N+]3=C(c5ccc[nH]5)C=CC3=C4)cc21 [Amitriptyline-a-2-NB590]
- NanoBRET Fold Response (CHRM4): 1.26
- NanoBRET Fold Response (CHRM5): 1.04

SMILES: O=C(CCc1ccc2n1[B-](F)(F)[N+]1=C(c3ccc[nH]3)C=CC1=C2)NCc1ccc(C(=O)NCCOCCC(=O)N[C@@H]2CC[C@@]3(O)[C@H]4Cc5ccc(O)c6c5[C@@]3(CCN4CC3CC3)[C@H]2O6)cc1 [Naltrexone-3-NB590]
- NanoBRET Fold Response (MC5R): 1.03
- NanoBRET Fold Response (CHRM3): 1.00 and 0.86
- NanoBRET Fold Response (HRH1): 0.83 and 1.38
- NanoBRET Fold Response (ADRA2B): 0.77 and 0.73

SMILES: CCCn1c(=O)c2[nH]c(-c3ccc(OCC(=O)NCCN)cc3)nc2n(CCC)c1=O [XAC (unmodified)]
- NanoBRET Fold Response, other tracers/XAC (unmodified) [1]: 1.04
